From patent US4672036A, “Pure cultures of Kibdelsporangium aridum Shearer gen. nov., sp. nov. ATCC 39323 and mutants thereof” (SmithKline Beckman Corporation, priority 1985, dated 1987)

Tested on: Swine in vitro model
Test: swine in vitro model (growth promotant activity)

Compound | GLU (glucose) [% Control] | VFA (total of volatile fatty acids) (1.67 ppm) [% Control] | VFA (total of volatile fatty acids) (16.67 ppm) [% Control]
CCCCCCCCCC(=O)N[C@H]1[C@H](Oc2c3cc4cc2Oc2c(Cl)cc(cc2Cl)[C@@H](O)[C@@H]2NC(=O)[C@H](NC(=O)[C@@H]4NC(=O)[C@H]4NC(=O)[C@H](NC(=O)[C@H](NC)c5ccc(O)c(c5)Oc5cc(O)c(Cl)c4c5)[C@H](O)c4ccc(c(Cl)c4)O3)c3ccc(O)c(c3)-c3c(O[C@H]4O[C@H](CO)[C@@H](O)[C@H](O)[C@@H]4O)cc(O)cc3[C@@H](C(=O)O)NC2=O)O[C@H](C(=O)O)[C@@H](O)[C@@H]1O [AAD 216A] | 97 | – | –
Virginiamycin | – | 248 | 130
